From ChEMBL document CHEMBL5108074 (J Med Chem, 2022)

Amino acid sequences for entries named in this document (tags omitted). Residues count along the entry.
UniProt P03952, 20-390 limits assumed: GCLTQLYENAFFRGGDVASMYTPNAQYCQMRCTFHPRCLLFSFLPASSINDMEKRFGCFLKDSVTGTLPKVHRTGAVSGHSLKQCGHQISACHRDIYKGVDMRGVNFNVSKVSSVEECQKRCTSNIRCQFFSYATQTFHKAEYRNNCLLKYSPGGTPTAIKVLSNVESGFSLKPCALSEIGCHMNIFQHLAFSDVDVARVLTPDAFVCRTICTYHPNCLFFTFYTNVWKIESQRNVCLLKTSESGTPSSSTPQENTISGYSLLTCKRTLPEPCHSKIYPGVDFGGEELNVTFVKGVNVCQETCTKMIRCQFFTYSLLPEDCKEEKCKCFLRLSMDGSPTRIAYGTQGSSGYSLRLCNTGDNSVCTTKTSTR
UniProt P03952, 391-638 limits assumed: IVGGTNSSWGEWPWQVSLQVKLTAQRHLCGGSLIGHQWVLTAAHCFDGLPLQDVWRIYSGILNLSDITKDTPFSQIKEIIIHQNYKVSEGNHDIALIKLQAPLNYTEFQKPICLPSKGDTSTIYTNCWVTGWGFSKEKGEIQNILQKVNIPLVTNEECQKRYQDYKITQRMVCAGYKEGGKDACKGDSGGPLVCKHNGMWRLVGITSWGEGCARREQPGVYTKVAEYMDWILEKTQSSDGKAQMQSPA

Biological target: Plasma kallikrein (Homo sapiens, UniProt P03952)
Type: cell-free

COCc1nn(Cc2ccc(Cn3ccccc3=O)cc2)cc1C(=O)NCc1c(Cl)ccc(OC)c1F
IC50: 5.5 nM
